Reference: patent publication EP1855705B1, “ANTIBIOTIC 107891, ITS FACTORS, PHARMACEUTICALLY ACCEPTABLE SALTS AND COMPOSITIONS, AND USE THEREOF” (Sentinella Pharmaceuticals, Inc. ("Sentinella"), priority 2005, dated 2006)
In brackets after ≈: the same amount, converted by molar mass.

C=C1NC(=O)[C@H](Cc2c[nH]c3ccccc23)NC(=O)[C@H](NC(=O)/C(=C/C)NC(=O)[C@@H](N)C(C)C)CSC[C@@H](C(=O)N[C@H]2C(=O)N3CCC[C@H]3C(=O)NCC(=O)N[C@H](C(=O)N[C@H](C(=O)N[C@@H]3CSC[C@@H]4NC(=O)[C@H](CC(N)=O)NC(=O)[C@@H](CSC[C@@H]5NC(=O)[C@H](Cc6ccccc6)NC(=O)[C@@H](CS/C=C\NC5=O)NC4=O)NC(=O)CNC(=O)CNC(=O)CNC(=O)[C@@H]4CCCN4C3=O)[C@@H](C)O)CS[C@H]2C)NC(=O)[C@H](CC(C)C)NC1=O [MF-BA-1768ß1]
MIC (Staphylococcus aureus): 0.5 µg/mL (≈ 0.229 µM) | MIC (Enterococcus faecalis): 8 µg/mL (≈ 3.67 µM)
